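Assay format: 96-well plates, 48-hour exposure. Here, GI50 denotes the concentration required for 50% inhibition of growth. The concentration for full growth arrest is given as TGI.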
Experiments:
Test in all cases: NCI anticancer screen, dose series, 48 h
[1] = test system: 786-0 renal
[2] = test system: A498 renal
[3] = test system: A549 NSCLC
[4] = test system: ACHN renal
[5] = test system: BT-549 breast
[6] = test system: CAKI-1 renal
[7] = test system: CCRF-CEM leukemia
[8] = test system: COLO 205 colon
[9] = test system: DU-145 prostate
[10] = test system: EKVX NSCLC
[11] = test system: HCC-2998 colon
[12] = test system: HCT-116 colon
[13] = test system: HCT-15 colon
[14] = test system: HL-60(TB) leukemia
[15] = test system: HOP-62 NSCLC
[16] = test system: HOP-92 NSCLC
[17] = test system: HS 578T breast
[18] = test system: HT29 colon
[19] = test system: IGROV1 ovarian
[20] = test system: K-562 leukemia
[21] = test system: KM12 colon
[22] = test system: LOX IMVI melanoma
[23] = test system: M14 melanoma
[24] = test system: MALME-3M melanoma
[25] = test system: MCF7 breast
[26] = test system: MDA-MB-231 breast
[27] = test system: MDA-MB-435
[28] = test system: MOLT-4 leukemia
[29] = test system: NCI-H226 lung
[30] = test system: NCI-H23 lung
[31] = test system: NCI-H322M lung
[32] = test system: NCI-H460 lung
[33] = test system: NCI-H522 lung
[34] = test system: NCI/ADR-RES ovarian
[35] = test system: OVCAR-3 ovarian
[36] = test system: OVCAR-4 ovarian
[37] = test system: OVCAR-5 ovarian
[38] = test system: OVCAR-8 ovarian
[39] = test system: PC-3 prostate
[40] = test system: RPMI-8226 leukemia
[41] = test system: RXF 393 renal
[42] = test system: SF-268 CNS
[43] = test system: SF-295 CNS
[44] = test system: SF-539 CNS
[45] = test system: SK-MEL-2 melanoma
[46] = test system: SK-MEL-28 melanoma
[47] = test system: SK-MEL-5 melanoma
[48] = test system: SK-OV-3 ovarian
[49] = test system: SN12C renal
[50] = test system: SNB-19 CNS
[51] = test system: SNB-75 CNS
[52] = test system: SR leukemia
[53] = test system: SW-620 colon
[54] = test system: T-47D breast
[55] = test system: TK-10 renal
[56] = test system: U251 CNS
[57] = test system: UACC-257 melanoma
[58] = test system: UACC-62 melanoma
[59] = test system: UO-31 renal

**Q.** How did the GI50 [1] turn out when `O=C(Cl)c1c([N+](=O)[O-])cc([N+](=O)[O-])cc1[N+](=O)[O-]` was run?
**A.** 14.1 µM

**Q.** And the TGI [1]?
**A.** 27.1 µM

**Q.** And the GI50 [2]?
**A.** 16.1 µM

**Q.** What about the TGI [2] of the same molecule?
**A.** 29.6 µM

**Q.** What about the GI50 [3] of the same molecule?
**A.** 16.8 µM

**Q.** What about the TGI [3] of the same molecule?
**A.** 32.2 µM

**Q.** And the GI50 [4]?
**A.** 1.88 µM

**Q.** What about the TGI [4] of the same molecule?
**A.** 3.43 µM

**Q.** What about the GI50 [5] of the same molecule?
**A.** 13.6 µM

**Q.** What about the TGI [5] of the same molecule?
**A.** 26.5 µM

**Q.** What about the GI50 [6] of the same molecule?
**A.** 1.8 µM

**Q.** And the TGI [6]?
**A.** 3.34 µM

**Q.** What about the GI50 [7] of the same molecule?
**A.** 3.33 µM

**Q.** And the TGI [7]?
**A.** 17 µM

**Q.** What about the GI50 [8] of the same molecule?
**A.** 1.89 µM

**Q.** And the TGI [8]?
**A.** 3.51 µM

**Q.** And the GI50 [9]?
**A.** 1.67 µM

**Q.** And the TGI [9]?
**A.** 3.05 µM

**Q.** What about the GI50 [10] of the same molecule?
**A.** 6.73 µM

**Q.** And the TGI [10]?
**A.** 19.3 µM

**Q.** What about the GI50 [11] of the same molecule?
**A.** 1.88 µM

**Q.** What about the TGI [11] of the same molecule?
**A.** 3.45 µM

**Q.** What about the GI50 [12] of the same molecule?
**A.** 3.36 µM

**Q.** And the TGI [12]?
**A.** 11.3 µM

**Q.** What about the GI50 [13] of the same molecule?
**A.** 1.68 µM

**Q.** And the TGI [13]?
**A.** 3.56 µM

**Q.** And the GI50 [14]?
**A.** 2.34 µM

**Q.** And the TGI [14]?
**A.** 6.01 µM

**Q.** And the GI50 [15]?
**A.** 2.84 µM

**Q.** What about the TGI [15] of the same molecule?
**A.** 7.67 µM

**Q.** What about the GI50 [16] of the same molecule?
**A.** 7.68 µM

**Q.** And the TGI [16]?
**A.** 20 µM

**Q.** What about the GI50 [17] of the same molecule?
**A.** 2.03 µM

**Q.** And the TGI [17]?
**A.** 8.19 µM

**Q.** And the GI50 [18]?
**A.** 2.4 µM

**Q.** What about the TGI [18] of the same molecule?
**A.** 5.33 µM

**Q.** And the GI50 [19]?
**A.** 10.2 µM

**Q.** What about the TGI [19] of the same molecule?
**A.** 23.4 µM

**Q.** And the GI50 [20]?
**A.** 3.22 µM

**Q.** What about the TGI [20] of the same molecule?
**A.** > 100 µM

**Q.** What about the GI50 [21] of the same molecule?
**A.** 5 µM

**Q.** And the TGI [21]?
**A.** 19.7 µM

**Q.** What about the GI50 [22] of the same molecule?
**A.** 2.95 µM

**Q.** And the TGI [22]?
**A.** 11.4 µM

**Q.** What about the GI50 [23] of the same molecule?
**A.** 5.5 µM

**Q.** What about the TGI [23] of the same molecule?
**A.** 18.3 µM

**Q.** What about the GI50 [24] of the same molecule?
**A.** 5.64 µM

**Q.** And the TGI [24]?
**A.** 18.7 µM

**Q.** And the GI50 [25]?
**A.** 1.67 µM

**Q.** And the TGI [25]?
**A.** 3.82 µM

**Q.** What about the GI50 [26] of the same molecule?
**A.** 11.2 µM

**Q.** And the TGI [26]?
**A.** 25.3 µM

**Q.** And the GI50 [27]?
**A.** 6.38 µM

**Q.** What about the TGI [27] of the same molecule?
**A.** 19.2 µM

**Q.** And the GI50 [28]?
**A.** 4.84 µM

**Q.** And the TGI [28]?
**A.** 37.4 µM

**Q.** And the GI50 [29]?
**A.** 15.2 µM

**Q.** What about the TGI [29] of the same molecule?
**A.** 28.9 µM

**Q.** What about the GI50 [30] of the same molecule?
**A.** 12 µM

**Q.** And the TGI [30]?
**A.** 31.7 µM

**Q.** What about the GI50 [31] of the same molecule?
**A.** 15.4 µM

**Q.** What about the TGI [31] of the same molecule?
**A.** 29.3 µM

**Q.** And the GI50 [32]?
**A.** 11.5 µM

**Q.** What about the TGI [32] of the same molecule?
**A.** 28.5 µM

**Q.** What about the GI50 [33] of the same molecule?
**A.** 1.84 µM

**Q.** What about the TGI [33] of the same molecule?
**A.** 3.64 µM

**Q.** What about the GI50 [34] of the same molecule?
**A.** 13.7 µM

**Q.** What about the TGI [34] of the same molecule?
**A.** 52.6 µM

**Q.** And the GI50 [35]?
**A.** 1.79 µM

**Q.** And the TGI [35]?
**A.** 3.22 µM

**Q.** What about the GI50 [36] of the same molecule?
**A.** 1.89 µM

**Q.** And the TGI [36]?
**A.** 3.87 µM

**Q.** And the GI50 [37]?
**A.** 17.1 µM

**Q.** And the TGI [37]?
**A.** 40.9 µM

**Q.** What about the GI50 [38] of the same molecule?
**A.** 10.5 µM

**Q.** And the TGI [38]?
**A.** 32 µM

**Q.** What about the GI50 [39] of the same molecule?
**A.** 6.16 µM

**Q.** What about the TGI [39] of the same molecule?
**A.** 20.6 µM

**Q.** And the GI50 [40]?
**A.** 2.58 µM

**Q.** What about the TGI [40] of the same molecule?
**A.** 7.17 µM

**Q.** What about the GI50 [41] of the same molecule?
**A.** 4.37 µM

**Q.** And the TGI [41]?
**A.** 14.2 µM

**Q.** And the GI50 [42]?
**A.** 4.68 µM

**Q.** And the TGI [42]?
**A.** 17.1 µM

**Q.** What about the GI50 [43] of the same molecule?
**A.** 16.1 µM

**Q.** And the TGI [43]?
**A.** 29.5 µM

**Q.** And the GI50 [44]?
**A.** 6.81 µM

**Q.** What about the TGI [44] of the same molecule?
**A.** 20 µM

**Q.** What about the GI50 [45] of the same molecule?
**A.** 11.7 µM

**Q.** What about the TGI [45] of the same molecule?
**A.** 26.7 µM

**Q.** What about the GI50 [46] of the same molecule?
**A.** 2.8 µM

**Q.** What about the TGI [46] of the same molecule?
**A.** 7.69 µM

**Q.** What about the GI50 [47] of the same molecule?
**A.** 18.1 µM

**Q.** And the TGI [47]?
**A.** 32.6 µM

**Q.** What about the GI50 [48] of the same molecule?
**A.** 15.9 µM

**Q.** And the TGI [48]?
**A.** 29.3 µM

**Q.** What about the GI50 [49] of the same molecule?
**A.** 10.2 µM

**Q.** What about the TGI [49] of the same molecule?
**A.** 23.7 µM

**Q.** What about the GI50 [50] of the same molecule?
**A.** 4.8 µM

**Q.** What about the TGI [50] of the same molecule?
**A.** 17.7 µM

**Q.** What about the GI50 [51] of the same molecule?
**A.** 2.24 µM

**Q.** What about the TGI [51] of the same molecule?
**A.** 10.3 µM

**Q.** What about the GI50 [52] of the same molecule?
**A.** 2.14 µM

**Q.** And the TGI [52]?
**A.** > 100 µM

**Q.** What about the GI50 [53] of the same molecule?
**A.** 1.93 µM

**Q.** What about the TGI [53] of the same molecule?
**A.** 4.01 µM

**Q.** What about the GI50 [54] of the same molecule?
**A.** 2.11 µM

**Q.** What about the TGI [54] of the same molecule?
**A.** 4.55 µM

**Q.** And the GI50 [55]?
**A.** 16.1 µM

**Q.** And the TGI [55]?
**A.** 29.6 µM

**Q.** What about the GI50 [56] of the same molecule?
**A.** 9.56 µM

**Q.** And the TGI [56]?
**A.** 22 µM

**Q.** And the GI50 [57]?
**A.** 1.67 µM

**Q.** And the TGI [57]?
**A.** 3.17 µM

**Q.** What about the GI50 [58] of the same molecule?
**A.** 4.27 µM

**Q.** And the TGI [58]?
**A.** 16.2 µM

**Q.** What about the GI50 [59] of the same molecule?
**A.** 1.79 µM

**Q.** And the TGI [59]?
**A.** 3.36 µM

— PubChem BioAssay (NCI)
